# Antibody variant affinities, Ab-95 light chain, assay 2

Values reported by Engelhart et al. 2022, doi:10.1038/s41597-022-01779-4 (FLAb copy).

Antigen: PDVDLGDISGINAS, a 14-residue peptide of the SARS-CoV-2 spike HR2 region.

Parent scFv Ab-95: VH joined to VL by three GGGGS repeats. Changes lie in the light chain CDRs alone.
VH: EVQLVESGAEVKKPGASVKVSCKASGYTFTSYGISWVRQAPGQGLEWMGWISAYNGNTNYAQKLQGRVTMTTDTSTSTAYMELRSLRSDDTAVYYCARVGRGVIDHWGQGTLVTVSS
VL: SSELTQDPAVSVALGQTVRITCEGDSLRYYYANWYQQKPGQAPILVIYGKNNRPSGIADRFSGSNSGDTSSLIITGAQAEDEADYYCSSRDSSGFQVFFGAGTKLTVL

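AAYL52 was designed without a model: most single CDR substitutions and a random sample of double and triple ones. The assay is AlphaSeq: two haploid yeast populations carry antibody and antigen on their surface. Binding brings cells together so that they mate, and sequencing counts the barcode pairs among the diploids. The ratio of observed to expected reads was calibrated, replicate by replicate, on BCL2-family standards whose Kd was known from biolayer interferometry. Each pool was mated in three replicate cultures.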

Sequences are complete VL domains. Values are apparent Kd, the geometric mean of the replicates that gave a signal; lower means stronger binding. An entry "not detected" has no value in the source: the pair was not observed among the diploids in any replicate. This suggests poor binding but is not conclusive. Empty control strains, which show no peptide, gave a signal in 28% of pairings with library AAYL52; the median was 8.2 µM and 95% of these signals were weaker than 800 nM. No background was subtracted. In this assay the parent's reference entry averaged 200 nM; its copy inside this library read 180 nM.

| VL | Kd (apparent) | detected |
|---|---|---|
| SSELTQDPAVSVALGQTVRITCEFDTLRYCYANWYQQKPGQAPILVIYGKNNRPSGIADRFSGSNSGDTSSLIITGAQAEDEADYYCSSRDSSGFQVFFGAGTKLTVL | 760 nM | 3/3 |
| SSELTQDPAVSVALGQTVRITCERDSLRYYYANWYQQKPGQAPILVIYGKNNRPSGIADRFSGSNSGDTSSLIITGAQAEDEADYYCDSRDSSGFQKFFGAGTKLTVL | 61 µM | 1/3 |
| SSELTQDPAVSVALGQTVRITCEGDSLRYYYQNWYQQKPGQAPILVIYTKNPRPSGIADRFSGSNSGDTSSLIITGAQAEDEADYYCSSRDSSGFQVFFGAGTKLTVL | 4.3 µM | 2/3 |
| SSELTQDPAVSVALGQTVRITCEGDSLRYGYANWYQQKPGQAPILVIYGKNNRPSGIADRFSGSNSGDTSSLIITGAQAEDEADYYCSSRDSSGFQYDFGAGTKLTVL | 74 nM | 3/3 |
| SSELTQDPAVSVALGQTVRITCEGDSLRYYFHNWYQQKPGQAPILVIYGYNNRPSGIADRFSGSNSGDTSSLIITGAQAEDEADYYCSSRDSSGFQVFFGAGTKLTVL | 1.1 µM | 2/3 |
| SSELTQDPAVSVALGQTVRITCEGDSLRYRYANWYQQKPGQAPILVIYGFNNRPSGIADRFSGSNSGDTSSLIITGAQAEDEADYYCSSRDSKGFQVFFGAGTKLTVL | 59 nM | 3/3 |
| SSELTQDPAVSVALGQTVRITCEGDSHNYYYCNWYQQKPGQAPILVIYGKNNRPSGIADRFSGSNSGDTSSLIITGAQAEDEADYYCSSRDSSGFQVFFGAGTKLTVL | 3.1 µM | 2/3 |
| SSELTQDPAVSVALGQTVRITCEGDSLRYYYANWYQQKPGQAPILVIYGKNNRVSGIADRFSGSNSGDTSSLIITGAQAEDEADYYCESRDSSTFQVFFGAGTKLTVL | 820 nM | 2/3 |
| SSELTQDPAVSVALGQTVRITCEGDSLRYYYGNWYQQKPGQAPILVIYGVNNRPSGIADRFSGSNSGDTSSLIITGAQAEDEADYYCSSRDSSGFIVFFGAGTKLTVL | 9.3 µM | 1/3 |
| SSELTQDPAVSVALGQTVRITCEGDSERYYYANWYQQKPGQAPILVIYGKNNRPSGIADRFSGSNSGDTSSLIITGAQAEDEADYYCSSRDSSIFQAFFGAGTKLTVL | 1.6 µM | 1/3 |
| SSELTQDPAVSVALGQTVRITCEKDSLRYYFANWYQQKPGQAPILVIYGKNNRGSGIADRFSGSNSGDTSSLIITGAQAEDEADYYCSSRDSSGFQVFFGAGTKLTVL | 21 µM | 1/3 |
| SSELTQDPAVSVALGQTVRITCEGDSLRYYYANWYQQKPGQAPILVIYSKNNRPSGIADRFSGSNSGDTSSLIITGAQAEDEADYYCSSRDQSGYQVFFGAGTKLTVL | 150 nM | 3/3 |
| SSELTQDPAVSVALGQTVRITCEGPSLRYYYANWYQQKPGQAPILVIYGKNNWPSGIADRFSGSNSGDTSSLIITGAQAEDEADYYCSWRDSSGFQVFFGAGTKLTVL | not detected | 0/3 |
| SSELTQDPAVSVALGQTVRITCEGDSLYYYYANWYQQKPGQAPILVIYGKNNRPMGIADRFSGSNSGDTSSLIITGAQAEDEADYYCSSRDSSGFYVFFGAGTKLTVL | 810 nM | 3/3 |
| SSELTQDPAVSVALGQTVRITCEGDSLRYYYANWYQQKPGQAPILVIYGKNCHPSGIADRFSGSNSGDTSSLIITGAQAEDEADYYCSSRDSSGDQVFFGAGTKLTVL | 7.5 µM | 3/3 |
| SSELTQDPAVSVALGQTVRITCEGDSLRYYYANWYQQKPGQAPILVIYNKNNRPSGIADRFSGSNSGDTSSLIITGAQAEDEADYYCSSRDSSGFQMFFGAGTKLTVL | 560 nM | 3/3 |
| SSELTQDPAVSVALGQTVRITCKGDSLRAYYANWYQQKPGQAPILVIYGKNNRPSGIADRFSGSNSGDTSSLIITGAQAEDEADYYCSSRDSSKFQVFFGAGTKLTVL | 47 nM | 3/3 |
| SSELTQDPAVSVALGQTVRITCEGDSLRYYYANWYQQKPGQAPILVIYGSNNRPSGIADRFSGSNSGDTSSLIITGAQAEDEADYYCSSRDISGFLVFFGAGTKLTVL | 31 µM | 2/3 |
| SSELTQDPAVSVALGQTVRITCEGDSLRYYYANWYQQKPGQAPILVIYGKNNNPSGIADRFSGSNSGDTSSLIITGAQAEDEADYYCSSRDSSGFFRFFGAGTKLTVL | not detected | 0/3 |
| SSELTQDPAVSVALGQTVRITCESDSLRYYPANWYQQKPGQAPILVIYGKNNRPSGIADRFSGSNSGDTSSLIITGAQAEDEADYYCSSRDSSGFQVVFGAGTKLTVL | 280 nM | 3/3 |
| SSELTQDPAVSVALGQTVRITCEGDSLRYYYANWYQQKPGQAPILVIYGKNNRGSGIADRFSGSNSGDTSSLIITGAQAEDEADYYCSSRDISGFWVFFGAGTKLTVL | 2.3 µM | 3/3 |
| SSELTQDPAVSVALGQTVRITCEVDRLRYYYAWWYQQKPGQAPILVIYGKNNRPSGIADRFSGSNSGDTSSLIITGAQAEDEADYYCSSRDSSGFQVFFGAGTKLTVL | 8.7 µM | 2/3 |
| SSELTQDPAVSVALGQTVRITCEGDSLRYYYALWYQQKPGQAPILVIYGKLNRSSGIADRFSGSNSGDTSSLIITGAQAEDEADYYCSSRDSSGFQVFFGAGTKLTVL | 14 µM | 2/3 |

Repeated from above, the 2 best binders with a signal in all replicates:

{"VL": "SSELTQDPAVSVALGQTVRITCKGDSLRAYYANWYQQKPGQAPILVIYGKNNRPSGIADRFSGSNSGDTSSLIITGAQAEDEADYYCSSRDSSKFQVFFGAGTKLTVL", "Kd (apparent)": "47 nM", "detected": "3/3"}
{"VL": "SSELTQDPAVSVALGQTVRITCEGDSLRYRYANWYQQKPGQAPILVIYGFNNRPSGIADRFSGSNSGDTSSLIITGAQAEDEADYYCSSRDSKGFQVFFGAGTKLTVL", "Kd (apparent)": "59 nM", "detected": "3/3"}